{"source": "PubChem BioAssay (NCI)", "experiment_in_all_cases": "DTP human tumour cell line panel, 48 h", "key": {"[1]": {"system": "HL-60(TB) leukemia"}, "[2]": {"system": "786-0 renal"}, "[3]": {"system": "RXF 393 renal"}, "[4]": {"system": "SF-539 CNS"}, "[5]": {"system": "HOP-62 NSCLC"}, "[6]": {"system": "UACC-62 melanoma"}, "[7]": {"system": "UACC-257 melanoma"}, "[8]": {"system": "OVCAR-5 ovarian"}, "[9]": {"system": "MDA-MB-435"}, "[10]": {"system": "BT-549 breast"}, "[11]": {"system": "K-562 leukemia"}, "[12]": {"system": "CCRF-CEM leukemia"}, "[13]": {"system": "SW-620 colon"}, "[14]": {"system": "NCI-H522 lung"}, "[15]": {"system": "HCC-2998 colon"}, "[16]": {"system": "MDA-MB-231 breast"}, "[17]": {"system": "A549 NSCLC"}, "[18]": {"system": "IGROV1 ovarian"}, "[19]": {"system": "OVCAR-8 ovarian"}, "[20]": {"system": "ACHN renal"}, "[21]": {"system": "UO-31 renal"}, "[22]": {"system": "CAKI-1 renal"}, "[23]": {"system": "EKVX NSCLC"}, "[24]": {"system": "NCI-H23 lung"}, "[25]": {"system": "HCT-116 colon"}, "[26]": {"system": "U251 CNS"}, "[27]": {"system": "MOLT-4 leukemia"}, "[28]": {"system": "SNB-75 CNS"}, "[29]": {"system": "MALME-3M melanoma"}, "[30]": {"system": "LOX IMVI melanoma"}, "[31]": {"system": "SR leukemia"}, "[32]": {"system": "SN12C renal"}, "[33]": {"system": "PC-3 prostate"}, "[34]": {"system": "T-47D breast"}, "[35]": {"system": "KM12 colon"}, "[36]": {"system": "TK-10 renal"}, "[37]": {"system": "MCF7 breast"}, "[38]": {"system": "RPMI-8226 leukemia"}, "[39]": {"system": "M14 melanoma"}, "[40]": {"system": "SNB-19 CNS"}, "[41]": {"system": "NCI/ADR-RES ovarian"}, "[42]": {"system": "SF-268 CNS"}, "[43]": {"system": "HT29 colon"}, "[44]": {"system": "DU-145 prostate"}, "[45]": {"system": "SK-MEL-28 melanoma"}, "[46]": {"system": "OVCAR-3 ovarian"}, "[47]": {"system": "COLO 205 colon"}, "[48]": {"system": "SF-295 CNS"}, "[49]": {"system": "HCT-15 colon"}, "[50]": {"system": "SK-MEL-5 melanoma"}, "[51]": {"system": "NCI-H226 lung"}, "[52]": {"system": "SK-OV-3 ovarian"}}, "note": "Some of these compounds have results that are not shown, active ones among them.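 Assay format: 96-well plates, 48-hour exposure. GI50 = concentration required for 50% inhibition of growth. TGI: concentration producing complete growth inhibition.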"}
{"smiles": "C=C(C)C(O)(C(=O)OC1C2CCN(CC2)C1C)c1ccccc1", "note": "(centres undefined)", "values": [{"measurement": "GI50", "setting": "[1]", "value": 43.4, "unit": "µM"}, {"measurement": "TGI", "setting": "[1]", "value": "> 100", "unit": "µM"}, {"measurement": "GI50", "setting": "[2]", "value": "> 100", "unit": "µM"}, {"measurement": "TGI", "setting": "[2]", "value": "> 100", "unit": "µM"}, {"measurement": "GI50", "setting": "[3]", "value": "> 100", "unit": "µM"}, {"measurement": "TGI", "setting": "[3]", "value": "> 100", "unit": "µM"}, {"measurement": "GI50", "setting": "[4]", "value": "> 100", "unit": "µM"}, {"measurement": "TGI", "setting": "[4]", "value": "> 100", "unit": "µM"}, {"measurement": "GI50", "setting": "[5]", "value": "> 100", "unit": "µM"}, {"measurement": "TGI", "setting": "[5]", "value": "> 100", "unit": "µM"}, {"measurement": "GI50", "setting": "[6]", "value": "> 100", "unit": "µM"}, {"measurement": "TGI", "setting": "[6]", "value": "> 100", "unit": "µM"}, {"measurement": "GI50", "setting": "[7]", "value": "> 100", "unit": "µM"}, {"measurement": "TGI", "setting": "[7]", "value": "> 100", "unit": "µM"}, {"measurement": "GI50", "setting": "[8]", "value": "> 100", "unit": "µM"}, {"measurement": "TGI", "setting": "[8]", "value": "> 100", "unit": "µM"}, {"measurement": "GI50", "setting": "[9]", "value": "> 100", "unit": "µM"}, {"measurement": "TGI", "setting": "[9]", "value": "> 100", "unit": "µM"}, {"measurement": "GI50", "setting": "[10]", "value": "> 100", "unit": "µM"}, {"measurement": "TGI", "setting": "[10]", "value": "> 100", "unit": "µM"}, {"measurement": "GI50", "setting": "[11]", "value": "> 100", "unit": "µM"}, {"measurement": "TGI", "setting": "[11]", "value": "> 100", "unit": "µM"}, {"measurement": "GI50", "setting": "[12]", "value": "> 100", "unit": "µM"}, {"measurement": "TGI", "setting": "[12]", "value": "> 100", "unit": "µM"}, {"measurement": "GI50", "setting": "[13]", "value": "> 100", "unit": "µM"}, {"measurement": "TGI", "setting": "[13]", "value": "> 100", "unit": "µM"}, {"measurement": "GI50", "setting": "[14]", "value": "> 100", "unit": "µM"}, {"measurement": "TGI", "setting": "[14]", "value": "> 100", "unit": "µM"}, {"measurement": "GI50", "setting": "[15]", "value": "> 100", "unit": "µM"}, {"measurement": "TGI", "setting": "[15]", "value": "> 100", "unit": "µM"}, {"measurement": "GI50", "setting": "[16]", "value": "> 100", "unit": "µM"}, {"measurement": "TGI", "setting": "[16]", "value": "> 100", "unit": "µM"}, {"measurement": "GI50", "setting": "[17]", "value": "> 100", "unit": "µM"}, {"measurement": "TGI", "setting": "[17]", "value": "> 100", "unit": "µM"}, {"measurement": "GI50", "setting": "[18]", "value": "> 100", "unit": "µM"}, {"measurement": "TGI", "setting": "[18]", "value": "> 100", "unit": "µM"}, {"measurement": "GI50", "setting": "[19]", "value": "> 100", "unit": "µM"}, {"measurement": "TGI", "setting": "[19]", "value": "> 100", "unit": "µM"}, {"measurement": "GI50", "setting": "[20]", "value": "> 100", "unit": "µM"}, {"measurement": "TGI", "setting": "[20]", "value": "> 100", "unit": "µM"}, {"measurement": "GI50", "setting": "[21]", "value": 29.6, "unit": "µM"}, {"measurement": "TGI", "setting": "[21]", "value": "> 100", "unit": "µM"}, {"measurement": "GI50", "setting": "[22]", "value": "> 100", "unit": "µM"}, {"measurement": "TGI", "setting": "[22]", "value": "> 100", "unit": "µM"}, {"measurement": "GI50", "setting": "[23]", "value": "> 100", "unit": "µM"}, {"measurement": "TGI", "setting": "[23]", "value": "> 100", "unit": "µM"}, {"measurement": "GI50", "setting": "[24]", "value": "> 100", "unit": "µM"}, {"measurement": "TGI", "setting": "[24]", "value": "> 100", "unit": "µM"}, {"measurement": "GI50", "setting": "[25]", "value": "> 100", "unit": "µM"}, {"measurement": "TGI", "setting": "[25]", "value": "> 100", "unit": "µM"}, {"measurement": "GI50", "setting": "[26]", "value": "> 100", "unit": "µM"}, {"measurement": "TGI", "setting": "[26]", "value": "> 100", "unit": "µM"}, {"measurement": "GI50", "setting": "[27]", "value": "> 100", "unit": "µM"}, {"measurement": "TGI", "setting": "[27]", "value": "> 100", "unit": "µM"}, {"measurement": "GI50", "setting": "[28]", "value": "> 100", "unit": "µM"}, {"measurement": "TGI", "setting": "[28]", "value": "> 100", "unit": "µM"}, {"measurement": "GI50", "setting": "[29]", "value": "> 100", "unit": "µM"}, {"measurement": "TGI", "setting": "[29]", "value": "> 100", "unit": "µM"}, {"measurement": "GI50", "setting": "[30]", "value": "> 100", "unit": "µM"}, {"measurement": "TGI", "setting": "[30]", "value": "> 100", "unit": "µM"}, {"measurement": "GI50", "setting": "[31]", "value": "> 100", "unit": "µM"}, {"measurement": "TGI", "setting": "[31]", "value": "> 100", "unit": "µM"}, {"measurement": "GI50", "setting": "[32]", "value": "> 100", "unit": "µM"}, {"measurement": "TGI", "setting": "[32]", "value": "> 100", "unit": "µM"}, {"measurement": "GI50", "setting": "[33]", "value": "> 100", "unit": "µM"}, {"measurement": "TGI", "setting": "[33]", "value": "> 100", "unit": "µM"}, {"measurement": "GI50", "setting": "[34]", "value": "> 100", "unit": "µM"}, {"measurement": "TGI", "setting": "[34]", "value": "> 100", "unit": "µM"}, {"measurement": "GI50", "setting": "[35]", "value": "> 100", "unit": "µM"}, {"measurement": "TGI", "setting": "[35]", "value": "> 100", "unit": "µM"}, {"measurement": "GI50", "setting": "[36]", "value": "> 100", "unit": "µM"}, {"measurement": "TGI", "setting": "[36]", "value": "> 100", "unit": "µM"}, {"measurement": "GI50", "setting": "[37]", "value": "> 100", "unit": "µM"}, {"measurement": "TGI", "setting": "[37]", "value": "> 100", "unit": "µM"}, {"measurement": "GI50", "setting": "[38]", "value": "> 100", "unit": "µM"}, {"measurement": "TGI", "setting": "[38]", "value": "> 100", "unit": "µM"}, {"measurement": "GI50", "setting": "[39]", "value": "> 100", "unit": "µM"}, {"measurement": "TGI", "setting": "[39]", "value": "> 100", "unit": "µM"}, {"measurement": "GI50", "setting": "[40]", "value": "> 100", "unit": "µM"}, {"measurement": "TGI", "setting": "[40]", "value": "> 100", "unit": "µM"}, {"measurement": "GI50", "setting": "[41]", "value": 35.3, "unit": "µM"}, {"measurement": "TGI", "setting": "[41]", "value": 96.4, "unit": "µM"}, {"measurement": "GI50", "setting": "[42]", "value": "> 100", "unit": "µM"}, {"measurement": "TGI", "setting": "[42]", "value": "> 100", "unit": "µM"}, {"measurement": "GI50", "setting": "[43]", "value": "> 100", "unit": "µM"}, {"measurement": "TGI", "setting": "[43]", "value": "> 100", "unit": "µM"}, {"measurement": "GI50", "setting": "[44]", "value": "> 100", "unit": "µM"}, {"measurement": "TGI", "setting": "[44]", "value": "> 100", "unit": "µM"}, {"measurement": "GI50", "setting": "[45]", "value": "> 100", "unit": "µM"}, {"measurement": "TGI", "setting": "[45]", "value": "> 100", "unit": "µM"}, {"measurement": "GI50", "setting": "[46]", "value": "> 100", "unit": "µM"}, {"measurement": "TGI", "setting": "[46]", "value": "> 100", "unit": "µM"}, {"measurement": "GI50", "setting": "[47]", "value": "> 100", "unit": "µM"}, {"measurement": "TGI", "setting": "[47]", "value": "> 100", "unit": "µM"}, {"measurement": "GI50", "setting": "[48]", "value": "> 100", "unit": "µM"}, {"measurement": "TGI", "setting": "[48]", "value": "> 100", "unit": "µM"}, {"measurement": "GI50", "setting": "[49]", "value": "> 100", "unit": "µM"}, {"measurement": "TGI", "setting": "[49]", "value": "> 100", "unit": "µM"}, {"measurement": "GI50", "setting": "[50]", "value": "> 100", "unit": "µM"}, {"measurement": "TGI", "setting": "[50]", "value": "> 100", "unit": "µM"}, {"measurement": "GI50", "setting": "[51]", "value": "> 100", "unit": "µM"}, {"measurement": "TGI", "setting": "[51]", "value": "> 100", "unit": "µM"}, {"measurement": "GI50", "setting": "[52]", "value": "> 100", "unit": "µM"}, {"measurement": "TGI", "setting": "[52]", "value": "> 100", "unit": "µM"}]}
